Data set [1] in a line: Absorption after injection. The conditions noted are these: for absorption after intramuscular injection: in vivo.
Data set [2] can be described thus: Reaction of sulfide with cobinamide (UV-vis spectrum). The conditions noted are these: 25 μM cobinamide with water and hydroxyl ligands, NaSH 6.25 to 250 μM.
Data set [3] in a line: Range-finding toxicity studies. The conditions noted are these: mice and rats.
A short description of data set [4]: Cobinamide and hydroxocobalamin content of the flies.
A short description of data set [5]: Stability in aqueous solution.

For trimethylaminoethyl-cobinamide, the absorption entry in data set [1] (route not stated) is reported as “not well absorbed”.

As to cobinamide, in data set [2], the “sulfide molecules consumed and bound” value is “consumes and binds two sulfide molecules”. The dose limiting toxicity entry in data set [3] was “acute transient coagulation abnormalities”. For the same substance, the “drug content of flies” value in data set [4] (100 μM fed flies) stood at 1.85 µM; in data set [4] (200 μM fed flies) it was 1.72 µM.

Regarding sulfitocobinamide, the “stability relative to aquohydroxocobinamide” value in data set [5] was “even more stable than aquohydroxocobinamide”. Moreover, the “absorption after intramuscular injection” value in data set [1] is “absorbed after intramuscular injection”.

Turning to hydroxocobalamin, the entries for the “drug content of flies” value in data set [4] (100 μM fed flies) and in data set [4] (200 μM fed flies) were 1.59 µM and 3.4 µM, respectively.

For the substance dinitrocobinamide, the “stability relative to aquohydroxocobinamide” value in data set [5] was “even more stable than aquohydroxocobinamide”. Also, in data set [1], the “absorption after intramuscular injection” value is listed as “absorbed after intramuscular injection”.

These data come from patent US9534007B2, “Methods and compositions for treatment of cyanide and hydrogen sulfide toxicity” (dated 2017).
